Molecular target: human δOR β-arrestin2 (Homo sapiens, UniProt P41143)
Assay type: cell-based

β-arr2 Emax ± SEM: 26 ± 3%
EC50 (read-out: β-arr2 EC50): 1.1 nM
Substance: TAN67
